# Measurements taken from ChEMBL document CHEMBL1123905.
# Amino acid sequences for entries named in this document (tags omitted).
# UniProt P47747, whole entry, looked up: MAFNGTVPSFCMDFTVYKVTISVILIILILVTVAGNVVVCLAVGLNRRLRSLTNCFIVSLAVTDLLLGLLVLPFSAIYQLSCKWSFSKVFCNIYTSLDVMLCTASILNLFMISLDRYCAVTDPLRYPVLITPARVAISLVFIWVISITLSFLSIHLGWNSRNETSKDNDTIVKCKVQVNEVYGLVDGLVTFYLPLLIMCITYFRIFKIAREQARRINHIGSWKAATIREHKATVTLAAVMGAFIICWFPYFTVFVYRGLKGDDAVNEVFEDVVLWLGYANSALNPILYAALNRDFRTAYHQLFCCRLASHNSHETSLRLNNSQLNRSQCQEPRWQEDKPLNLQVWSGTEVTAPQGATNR
# Target: Histamine H2 receptor (Cavia porcellus) (UniProt P47747)
# Assay: Antagonism of histamine stimulated rate of beating of guinea pig right atrium mediated by Histamine H2 receptor
# Assay type: functional, tissue-based
# Conditions: Cardiac atrium
smiles,measurement,value
CCOP(=O)(O)/N=C(\NC)NCCSCc1[nH]cnc1C,-Log KB,4.48
